Data from article PMC7044438 (Nature Communications, 2020).

Biological target: T1, phosphorylated Ric-8A(1–491) (rat, UniProt Q80ZG1 1-491, phosphoserine at 435, phosphothreonine at 440 (casein kinase II))
T1 construct: Ric-8A, rat, N-terminal 491-residue fragment (residues 1-491) of the 530 amino acid full-length protein; His tag removed with TEV protease; vector pET28a; also called pRic-8A; source: E. coli BL21(DE3) RIPL, purified (Source 15Q, SEC), phosphorylated with casein kinase II; not shown: His6, N-terminal, cleaved
T1 sequence (looked up): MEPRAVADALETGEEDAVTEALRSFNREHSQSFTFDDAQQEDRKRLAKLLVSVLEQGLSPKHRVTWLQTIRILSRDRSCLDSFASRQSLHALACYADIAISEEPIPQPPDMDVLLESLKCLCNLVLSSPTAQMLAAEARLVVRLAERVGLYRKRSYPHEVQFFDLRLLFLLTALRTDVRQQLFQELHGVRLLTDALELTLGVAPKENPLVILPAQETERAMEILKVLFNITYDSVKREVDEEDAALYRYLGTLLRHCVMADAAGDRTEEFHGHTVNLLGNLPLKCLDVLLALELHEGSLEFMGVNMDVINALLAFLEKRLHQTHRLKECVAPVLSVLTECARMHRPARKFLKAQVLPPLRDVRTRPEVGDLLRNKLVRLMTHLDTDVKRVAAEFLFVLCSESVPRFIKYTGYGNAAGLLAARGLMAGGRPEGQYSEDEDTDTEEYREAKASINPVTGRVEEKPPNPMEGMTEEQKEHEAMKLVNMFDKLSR
Assay: cryo-EM structure; Ric-8A:ΔN31Gαi1:4Nb complex (Nb8109, Nb8117, Nb8119, Nb9156) at 0.4 mg/ml with 0.01% NP40; 3.9 Å reconstruction
Settings: both partners purified

binding result: binds
B1: ΔN31Gαi1 (domain or fragment, rat, UniProt P10824 32-354, looked up)
chain: REVKLLLLGAGESGKSTIVKQMKIIHEAGYSEEECKQYKAVVYSNTIQSIIAIIRAMGRLKIDFGDAARADDARQLFVLAGAAEEGFMTAELAGVIKRLWKDSGVQACFNRSREYQLNDSAAYYLNDLDRIAQPNYIPTQQDVLRTRVKTTGIVETHFTFKDLHFKMFDVGGQRSERKKWIHCFEGVTAIIFCVALSDYDLVLAEDEEMNRMHESMKLFDSICNNKWFTDTSIILFLNKKDLFEEKIKKSPLTICYPEYAGSNTYEEAAAYIQCQFEDLNKRKDTKEIYTHFTCATDTKNVQFVFDAVTDVIIKNNLKDCGLF
notes: nucleotide-free in the complex; Expressed from pDest15; also called Δ31NGαi1; Δ31Gαi1; source: E. coli BL21(DE3) RIPL, purified as previously described
